From patent US20210395313A1, “PEPTIDE PAC1 ANTAGONISTS” (AMGEN INC., priority 2017, published 2021)

How the values were obtained:
[1] = molecular target: T1, human PAC1 receptor (Homo sapiens, UniProt P41586); test: LANCE Ultra cAMP accumulation antagonist assay in SHSY-5Y cells; format: cell-based;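 further: inhibition of cAMP accumulation evoked by PAC1 agonist at its EC80 in SHSY-5Y cells endogenously expressing receptor, 30 min preincubation then 15 min agonist, TR-FRET readout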
T1 construct: SHSY-5Y (human neuroblastoma cell line) and RG-2 (rat glioma cell line) cells endogenously express human and rat PAC1 receptors, respectively; endogenous in cells; host or cells: SHSY-5Y human neuroblastoma cells
T1 sequence (P41586 21-468): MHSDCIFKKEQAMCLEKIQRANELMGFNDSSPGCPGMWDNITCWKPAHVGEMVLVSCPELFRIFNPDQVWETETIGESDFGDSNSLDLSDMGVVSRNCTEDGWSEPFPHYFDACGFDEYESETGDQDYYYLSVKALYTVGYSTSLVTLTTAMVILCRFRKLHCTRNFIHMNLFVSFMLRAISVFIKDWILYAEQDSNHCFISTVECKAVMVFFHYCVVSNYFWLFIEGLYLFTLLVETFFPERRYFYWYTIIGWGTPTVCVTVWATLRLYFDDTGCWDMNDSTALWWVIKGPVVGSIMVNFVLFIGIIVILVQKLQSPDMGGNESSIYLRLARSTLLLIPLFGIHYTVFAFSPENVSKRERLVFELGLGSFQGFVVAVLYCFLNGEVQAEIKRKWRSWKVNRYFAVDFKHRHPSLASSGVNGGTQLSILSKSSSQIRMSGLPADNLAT

[2] = molecular target: T2, rat PAC1 receptor (Rattus norvegicus, UniProt P32215); test: LANCE Ultra cAMP accumulation antagonist assay in RG-2 cells; format: cell-based;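 further: RG-2 rat glioma cells endogenously expressing PAC1, test peptide preincubated 30 min, then PAC1 agonist added at its EC80 for 15 min, cAMP accumulation read by LANCE Ultra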
T2 construct: SHSY-5Y (human neuroblastoma cell line) and RG-2 (rat glioma cell line) cells endogenously express human and rat PAC1 receptors, respectively; endogenous in cells; host or cells: RG-2 rat glioma cells
T2 sequence (P32215 20-523): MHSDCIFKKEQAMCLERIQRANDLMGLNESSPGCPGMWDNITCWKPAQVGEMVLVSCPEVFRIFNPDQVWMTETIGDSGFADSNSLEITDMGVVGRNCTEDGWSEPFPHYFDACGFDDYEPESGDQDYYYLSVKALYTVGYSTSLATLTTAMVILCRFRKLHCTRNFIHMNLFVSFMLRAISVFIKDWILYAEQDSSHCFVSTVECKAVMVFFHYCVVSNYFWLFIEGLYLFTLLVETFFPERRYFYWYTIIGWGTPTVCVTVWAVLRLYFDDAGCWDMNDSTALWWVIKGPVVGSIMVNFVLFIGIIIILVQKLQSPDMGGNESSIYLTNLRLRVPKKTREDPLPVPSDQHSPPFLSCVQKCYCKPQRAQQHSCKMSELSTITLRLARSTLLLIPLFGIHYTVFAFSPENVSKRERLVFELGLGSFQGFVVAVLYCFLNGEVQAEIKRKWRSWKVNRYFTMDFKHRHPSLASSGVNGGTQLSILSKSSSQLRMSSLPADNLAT

SMILES	IC50 [1]	IC50 [2]
CCCC[C@H](NC(=O)[C@@H]1CSSC[C@H](NC(=O)[C@H](CC(=O)O)NC(=O)[C@H](CC(=O)O)NC(=O)[C@@H](NC(=O)[C@H](C)NC(=O)[C@H](CCCCN)NC(=O)[C@H](CCCNC(=N)N)NC(=O)[C@H](Cc2ccccc2)NC(=O)[C@H](CCC(N)=O)NC(=O)[C@@H]2CSSC[C@H](N)C(=O)N[C@@H](CC(=O)O)C(=O)N[C@@H](C)C(=O)N[C@@H]([C@@H](C)O)C(=O)N2)[C@@H](C)CC)C(=O)N[C@@H](CCC(N)=O)C(=O)N[C@@H](CCCCN)C(=O)N[C@@H](CCC(N)=O)C(=O)N[C@@H](C)C(=O)N[C@@H](Cc2c[nH]cn2)C(=O)N[C@@H](Cc2c[nH]cn2)C(=O)N[C@@H](CO)C(=O)N[C@@H](CC(N)=O)C(=O)N[C@@H](CO)C(=O)N[C@@H](C(C)C)C(=O)N[C@@H](Cc2ccccc2)C(=O)N[C@@H](CCCCN)C(=O)NC(C)(C)C(=O)N1)C(=O)N[C@@H](CCCCN)C(=O)N[C@@H](CCC(N)=O)C(=O)N[C@@H](CCCCN)C(=O)N[C@@H](CCCCN)C(=O)N[C@@H](CCCCN)C(=O)N[C@@H](CCC(=O)O)C(=O)N[C@@H](Cc1ccccc1)C(=O)N[C@@H](CCCCN)C(N)=O [compound 246]	1 to 100 nM	1 to 100 nM
CCCC[C@H](NC(=O)[C@@H]1CSSC[C@H](NC(=O)[C@H](CC(=O)O)NC(=O)[C@H](CC(=O)O)NC(=O)[C@@H](NC(=O)[C@H](C)NC(=O)[C@H](CCCCN)NC(=O)[C@H](CCCNC(=N)N)NC(=O)[C@H](Cc2ccccc2)NC(=O)[C@H](CCC(N)=O)NC(=O)[C@@H]2CSSC[C@H](N)C(=O)N[C@@H](CC(=O)O)C(=O)N[C@@H](C)C(=O)N[C@@H]([C@@H](C)O)C(=O)N2)[C@@H](C)CC)C(=O)N[C@@H](CC(=O)O)C(=O)N[C@@H](CCCCN)C(=O)N[C@@H](CCC(N)=O)C(=O)N[C@@H](C)C(=O)N[C@@H](Cc2c[nH]cn2)C(=O)N[C@@H](Cc2c[nH]cn2)C(=O)N[C@@H](CO)C(=O)N[C@@H](CC(N)=O)C(=O)N[C@@H](C(C)C)C(=O)N2CCC[C@H]2C(=O)NCC(=O)N[C@@H](CO)C(=O)N[C@@H](Cc2ccccc2)C(=O)N[C@@H](CCCCN)C(=O)NC(C)(C)C(=O)N1)C(=O)N[C@@H](CCCCN)C(=O)N[C@@H](CCC(N)=O)C(=O)N[C@@H](CCCCN)C(=O)N[C@@H](CCCCN)C(=O)N[C@@H](CCCCN)C(=O)N[C@@H](CCC(=O)O)C(=O)N[C@@H](Cc1ccccc1)C(=O)N[C@@H](CCCCN)C(=O)N[C@@H](C)C(=O)NCC(N)=O [compound 252]	1 to 100 nM	0.01 to 1 nM
CCCC[C@H](NC(=O)[C@@H]1CSSC[C@H](NC(=O)[C@H](CC(=O)O)NC(=O)[C@H](CC(=O)O)NC(=O)[C@@H](NC(=O)[C@H](C)NC(=O)[C@H](CCCCN)NC(=O)[C@H](CCCNC(=N)N)NC(=O)[C@H](Cc2ccccc2)NC(=O)[C@H](CCC(N)=O)NC(=O)[C@@H]2CSSC[C@H](N)C(=O)N[C@@H](CC(=O)O)C(=O)N[C@@H](C)C(=O)N[C@@H]([C@@H](C)O)C(=O)N2)[C@@H](C)CC)C(=O)N[C@@H](CCC(N)=O)C(=O)N[C@@H](CCCCN)C(=O)N[C@@H](CCC(N)=O)C(=O)N[C@@H](C)C(=O)N[C@@H](Cc2c[nH]cn2)C(=O)N[C@@H](Cc2c[nH]cn2)C(=O)N[C@@H](CO)C(=O)N[C@@H](CC(N)=O)C(=O)N[C@@H](C(C)C)C(=O)N2CCC[C@H]2C(=O)NCC(=O)N[C@@H](CO)C(=O)N[C@@H](C(C)C)C(=O)N[C@@H](Cc2ccccc2)C(=O)N[C@@H](CCCCN)C(=O)NC(C)(C)C(=O)N1)C(=O)N[C@@H](CCCCN)C(=O)N[C@@H](CCC(N)=O)C(=O)N[C@@H](CCCCN)C(=O)N[C@@H](CCCCN)C(=O)N[C@@H](CCCCN)C(=O)N[C@@H](CCC(=O)O)C(=O)N[C@@H](Cc1ccccc1)C(=O)N[C@@H](CCCCN)C(N)=O [compound 264]	1 to 100 nM	0.01 to 1 nM
